# Results reported in patent US12053476B2, “Compounds, compositions and methods for cancer patient stratification and cancer treatment” (BAYER PHARMA AKTIENGESELLSCHAFT, priority 2016, dated 2024).
# Tested on: HeLa cells
# Experiment: Follow-up dose-dependent rescue of DNMDP cytotoxicity (competition with DNMDP)
# Conditions: co-treatment with DNMDP, 48 h, up to 10 μM
smiles,measurement,value
OCCN(CCO)c1nc(N2CCCCC2)c2nc(N(CCO)CCO)nc(N3CCCCC3)c2n1 [dipyridamole],rescue of DNMDP cytotoxicity / competition (in words),not effective competitors
